Literature values, collected in publication PMC10917278, “Structural insights into the modulation Of SOD1 aggregation By a fungal metabolite Phialomustin-B: Therapeutic potential in ALS” (PLOS ONE, 2024).

Test system: ALS patients
Settings: cited from earlier work

## Nc1nc2ccc(OC(F)(F)F)cc2s1 [Riluzole]
  prolongation of survival duration: approximately three
